Experimental findings from PubChem BioAssay AID1145 (ChemBank, 2008) are described below.

Only a part is listed here, and it is no random draw. Activity calls are given as the source filed them.

The assay in a line: CREB reporter modulators without forskolin, primary screen, cell-based, PC12, CRE-LacZ reporter, unstimulated (AID 1145). The settings on record: no forskolin, luminescence, 4.5 h, higher = more signal, called active from +8 up or from −8 down.
As to `COP(=O)(/N=C1/CC(c2ccc(CO)cc2)=CC(C2CC2)N1Cc1cc2c(cc1Br)OCO2)OC` (stereo not given), the z-score was inactive: 6.21.

Take `O=P(/N=C1/CC(CCCO)=CC(C2CC2)N1Cc1sc2ccccc2c1Cl)(Oc1ccccc1)Oc1ccccc1` (stereo not given): the z-score is inactive: -0.0243.

For the molecule `COP(=O)(/N=C1/CC(CCCO)=CC(c2ccc(CN3CCCC3)cc2)N1Cc1sc2ccccc2c1Cl)OC` (stereo not given), the z-score was inactive: -1.21.

`O=P(/N=C1/CC(c2ccc(CO)cc2)=CC(C2CC2)N1Cc1sc2ccccc2c1Cl)(Oc1ccccc1)Oc1ccccc1` (stereo not given): the z-score was inactive: 0.462.

Consider `CN1/C(=N\P(=O)(Oc2ccccc2)Oc2ccccc2)CC(CCCO)=CC1C1CC1` (stereo not given), for which the z-score is inactive: -0.761.

As to `O=P(/N=C1/CC(CCCO)=CC(c2ccc(CN3CCCC3)cc2)N1Cc1sc2ccccc2c1Cl)(Oc1ccccc1)Oc1ccccc1` (stereo not given), the z-score is inactive: 0.812.

Turning to `COP(=O)(/N=C1/CC(CCCO)=CC(c2cccs2)N1C)OC` (stereo not given), the z-score is inactive: -0.96.

For the molecule `COP(=O)(/N=C1/CC(CCCO)=CC(C2CC2)N1C)OC` (stereo not given), the z-score is inactive: -0.163.

For `COP(=O)(/N=C1/CC(CCCO)=CC(c2ccc(CN3CCCC3)cc2)N1C)OC` (stereo not given), the z-score was inactive: 0.406.

For the molecule `COP(=O)(/N=C1/CC(CCCO)=CC(C)N1Cc1cccc(OC(F)(F)F)c1)OC` (stereo not given), the z-score is inactive: 0.755.

As to `COP(=O)(/N=C1/CC(CCCO)=CC(C2CC2)N1Cc1sc2ccccc2c1Cl)OC` (stereo not given), the z-score was inactive: 0.378.

As for `COP(=O)(/N=C1/CC(c2ccc(CO)cc2)=CC(C2CC2)N1C)OC` (stereo not given), the z-score is inactive: 0.48.

For `O=P(/N=C1/CC(c2ccc(CO)cc2)=CC(C2CC2)N1Cc1cc2c(cc1Br)OCO2)(Oc1ccccc1)Oc1ccccc1` (stereo not given), the z-score was inactive: 0.0655.

Take `O=P(/N=C1/CC(c2ccc(CO)cc2)=CC(c2cccs2)N1Cc1cccc(OC(F)(F)F)c1)(Oc1ccccc1)Oc1ccccc1` (stereo not given): the z-score was inactive: -0.141.

Turning to `COP(=O)(/N=C1/CC(c2ccc(CO)cc2)=CC(c2cccs2)N1C)OC` (stereo not given), the z-score was inactive: 1.04.

In the case of `CN1/C(=N\P(=O)(Oc2ccccc2)Oc2ccccc2)CC(CCCO)=CC1c1ccc(CN2CCCC2)cc1` (stereo not given), the z-score was inactive: 0.272.

As to `O=P(/N=C1/CC(CCCO)=CC(c2cccs2)N1Cc1cc2c(cc1Br)OCO2)(Oc1ccccc1)Oc1ccccc1` (stereo not given), the z-score was inactive: 0.245.

Consider `COP(=O)(/N=C1/CC(CCCO)=CC(c2ccc(CN3CCCC3)cc2)N1Cc1cccc(OC(F)(F)F)c1)OC` (stereo not given), for which the z-score is inactive: -0.466.

As to `CN1/C(=N\P(=O)(Oc2ccccc2)Oc2ccccc2)CC(c2ccc(CO)cc2)=CC1c1cccs1` (stereo not given), the z-score is inactive: -0.141.

As to `COP(=O)(/N=C1/CC(c2ccc(CO)cc2)=CC(C2CC2)N1Cc1sc2ccccc2c1Cl)OC` (stereo not given), the z-score is inactive: 2.67.

With `COP(=O)(/N=C1/CC(CCCO)=CC(C2CC2)N1Cc1cc2c(cc1Br)OCO2)OC` (stereo not given), the z-score is inactive: -0.611.

For the molecule `CN1/C(=N\P(=O)(Oc2ccccc2)Oc2ccccc2)CC(CCCO)=CC1c1cccs1` (stereo not given), the z-score is inactive: 3.69.

Regarding `COP(=O)(/N=C1/CC(CCCO)=CC(C2CC2)N1Cc1cccc(OC(F)(F)F)c1)OC` (stereo not given), the z-score is inactive: -0.219.

Turning to `O=P(/N=C1/CC(CCCO)=CC(C2CC2)N1Cc1cc2c(cc1Br)OCO2)(Oc1ccccc1)Oc1ccccc1` (stereo not given), the z-score was inactive: 2.81.

`COP(=O)(/N=C1/CC(CCCO)=CC(c2ccc(CN3CCCC3)cc2)N1Cc1cc2c(cc1Br)OCO2)OC` (stereo not given): the z-score was inactive: -0.102.

As to `O=P(/N=C1/CC(CCCO)=CC(c2ccc(CN3CCCC3)cc2)N1Cc1cc2c(cc1Br)OCO2)(Oc1ccccc1)Oc1ccccc1` (stereo not given), the z-score was inactive: -0.258.

For `CC1C=C(CCCO)C/C(=N/P(=O)(Oc2ccccc2)Oc2ccccc2)N1Cc1cccc(OC(F)(F)F)c1` (stereo not given), the z-score was inactive: 6.8.

Consider `O=P(/N=C1/CC(CCCO)=CC(c2cccs2)N1Cc1cccc(OC(F)(F)F)c1)(Oc1ccccc1)Oc1ccccc1` (stereo not given), for which the z-score was inactive: 0.209.

Turning to `CN1/C(=N\P(=O)(Oc2ccccc2)Oc2ccccc2)CC(c2ccc(CO)cc2)=CC1C1CC1` (stereo not given), the z-score is inactive: 1.76.

Consider `O=P(/N=C1/CC(CCCO)=CC(C2CC2)N1Cc1cccc(OC(F)(F)F)c1)(Oc1ccccc1)Oc1ccccc1` (stereo not given), for which the z-score was inactive: 0.904.
